This is a selection; strong and weak results do not stand in their true shares. Results filed as inconclusive are left out. Some structures show a salt or complex split into parts, the way the source records it. Active and inactive are the calls of the source. The call rests on the fitted dose curve.

The chains behind the UniProt entries cited, without tags or fusion partners.
UniProt Q14974, whole entry: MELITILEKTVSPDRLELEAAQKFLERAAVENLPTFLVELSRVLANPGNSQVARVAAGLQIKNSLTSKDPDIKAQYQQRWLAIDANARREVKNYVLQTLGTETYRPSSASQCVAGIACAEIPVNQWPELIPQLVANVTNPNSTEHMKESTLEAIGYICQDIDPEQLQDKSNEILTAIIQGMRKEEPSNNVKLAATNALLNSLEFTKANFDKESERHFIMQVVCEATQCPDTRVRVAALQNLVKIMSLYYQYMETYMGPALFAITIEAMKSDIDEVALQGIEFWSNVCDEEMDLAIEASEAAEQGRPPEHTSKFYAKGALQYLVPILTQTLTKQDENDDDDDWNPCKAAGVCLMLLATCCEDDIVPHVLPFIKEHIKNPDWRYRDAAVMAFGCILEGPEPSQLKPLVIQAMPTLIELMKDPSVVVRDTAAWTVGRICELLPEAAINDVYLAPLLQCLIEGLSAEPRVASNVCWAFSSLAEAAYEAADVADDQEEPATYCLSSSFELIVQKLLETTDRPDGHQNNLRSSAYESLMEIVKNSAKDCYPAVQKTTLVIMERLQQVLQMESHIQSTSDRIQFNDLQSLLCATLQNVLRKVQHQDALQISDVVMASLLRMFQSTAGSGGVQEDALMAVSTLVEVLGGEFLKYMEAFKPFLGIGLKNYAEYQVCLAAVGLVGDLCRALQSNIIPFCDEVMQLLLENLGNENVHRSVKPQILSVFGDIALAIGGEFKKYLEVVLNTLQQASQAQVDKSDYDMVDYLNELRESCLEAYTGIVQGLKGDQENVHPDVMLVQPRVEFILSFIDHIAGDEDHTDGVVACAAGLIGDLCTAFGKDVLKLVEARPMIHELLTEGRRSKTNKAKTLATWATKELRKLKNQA
UniProt O95149, whole entry partner: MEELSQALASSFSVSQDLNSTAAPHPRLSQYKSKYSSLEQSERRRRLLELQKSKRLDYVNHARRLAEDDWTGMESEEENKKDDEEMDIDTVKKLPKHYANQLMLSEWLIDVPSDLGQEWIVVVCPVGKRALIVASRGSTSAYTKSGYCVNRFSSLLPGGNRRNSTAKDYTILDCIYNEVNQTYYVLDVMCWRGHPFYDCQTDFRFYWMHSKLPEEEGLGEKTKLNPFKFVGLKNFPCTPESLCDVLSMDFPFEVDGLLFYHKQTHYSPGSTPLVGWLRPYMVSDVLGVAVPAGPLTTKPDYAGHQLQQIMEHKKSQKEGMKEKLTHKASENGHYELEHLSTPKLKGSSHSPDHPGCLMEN

The text below walks through data of PubChem BioAssay AID540263 (National Center for Advancing Translational Sciences (NCATS), 2011).

The test deals with Importin subunit beta-1 (Homo sapiens) (UniProt Q14974). Put plainly: qHTS Assay for Inhibitors of Rango (Ran-regulated importin-beta cargo) - Importin beta complex formation.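 Further: 0% = DMSO wells and 100% = buffer wells lacking importin beta; nearly all actives have a fitted effect of over 15% in size.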 Particulars: Rango CFP/YFP FRET sensor + importin beta, 45 min; at 92.2 µM (top of the series). The source says:
NIH Molecular Libraries Probe Production Centers Network [MLPCN] NIH Chemical Genomics Center [NCGC] MLPCN Grant: R03 MH090808-01A1 Assay Submitter (PI): Petr Kalab NCGC Assay Overview: The small GTPase Ran regulates transport of macromolecules between the nucleus and the cytoplasm (nuclear transport) and has important functions in mitotic spindle assembly, nuclear envelope (NE) formation and nuclear pore complex (NPC) assembly. RanGTP gradient is thought to promote spindle assembly by providing a spatial clue to microtubule nucleation and Aurora A activation. Because the localized release and binding of importin alpha cargo relays this spatial clue to SAFs, inhibitors of the Rango - importin beta complex can then be used in further understanding their role in cell cycle specifically in mitosis progression. […] Activation of Aurora A has been linked to different types of cancer and a number of Aurora kinase inhibitors are being developed as potential canter therapeutics therefore, identified inhibitors of this complex could be developed into potential anti-mitotic probes for cancer treatment. Purified recombinant proteins Rango and importin beta were provided by the assay submitter. The assay used a fluorescence resonance energy transfer (FRET) Rango biosensor that contains the IBB of human snurportin 1 flanked by yellow fluorescent protein (EYFP) at the amino terminus and cerulean CFP10 at the carboxy terminus. […] Inhibitors will therefore be identified based on the ability to interfere with the FRET signal decrease. DMSO treated and no importin beta (buffer only) wells were used as negative and positive controls respectively. FRET readings were obtained at two time points. FRET reading prior to importin beta addition (pre-read) were used flag potential compound interference; FRET reading after importin beta addition (post-read) were used to identify inhibitors using the FRET ratio parameter.
NCGC Assay Protocol Summary: Two and a half uL/well of Rango-buffer solution (50 nM Rango, 1x PBS, 1mM DTT, 0.02% Tween-20, 0.1% BSA final concentrations) was dispensed into 1536-well assay plates (Greiner, solid black medium-binding plates) with Aurora Discovery BioRAPTR Flying Reagent Dispenser (FRD; Beckton-Dickenson). Compound solution (23 nL) was transferred to the assay plate using Kalypsys pin tool equipped with a 1536-pin tool and incubated at room temperature for 5 min followed by a FRET pre-read using the PerkinElmer Envision plate reader. Two and a half uL/well of Importin beta - buffer solution (0.125 microM importin beta, 1x PBS, 1mM DTT, 0.02% Tween-20, 0.1% BSA final concentrations) were then added and incubated at room temperature giving a final reaction volume of 5uL. After 45min FRET post-read was obtained via the Envision plate reader using the same optics and settings as the pre-read (CFP/YFP optimized dual optical module D450/D505; excitation mirror CFP 430/24 nm; and emission filters CFP 486/10 nm and YFP 530/10 nm).
For orientation: Quantitative high-throughput screening tests each substance at several concentrations.
On to `CCOC(=O)N1CCC(Nc2cccc(C)c2)CC1`, for which the inhibition of complex formation is inactive: 6.18%.
For `COc1cc(C(=O)NCC2(N(C)C)CCCCC2)ccc1OC(F)F` the value was inactive: -0.445%.
Next, `CCOC(=O)N1CCC(Nc2ccc(F)cc2)CC1`: inactive: 0.0234%; `COc1ccc(NC2CCN(CCc3ccccc3)CC2)c(OC)c1`: inactive: 1.64%.
For `CCCCOc1ccc(C(=O)NCC2(N3CCOCC3)CCCCC2)cc1` the value was inactive: 2.33%.
Turning to `O=P1(N(CCCl)CCCl)SCCCS1`, the inhibition of complex formation was inactive: -1.34%.
For `O=C(NCC1(N2CCCCC2)CCCCC1)c1ccc(F)cc1` the value was inactive: -2.38%.
Next, `CCOc1ccc(C)cc1CN(CCCl)CCCl`: inactive: 5.91%; `CCOC(=O)N1CCC(Nc2ccc(OC)cc2)CC1`: inactive: -0.132%.
For `COc1ccc(Cl)cc1C(=O)NCC1(N2CCOCC2)CCCCC1` the value was inactive: 0.297%; for `O=C1C(O)=C([N+](=O)[O-])C(=O)C(O)=C1[N+](=O)[O-]`, inactive: -0.722%.
Regarding `O=C(NCC1(N2CCCCC2)CCCCC1)c1ccc(Cl)s1`, the inhibition of complex formation is inactive: 3.21%.
For `N#CC1(Nc2ccccc2)CCN(Cc2ccccc2)CC1`, the inhibition of complex formation is inactive: 5.72%.
Turning to `O=C(OC1CN2CCC1CC2)C1c2ccccc2Oc2ccccc21` (configuration not stated), the inhibition of complex formation is inactive: -3.13%.
For `O=C(NCC1(N2CCOCC2)CCCCC1)c1cc2ccccc2o1` the value was inactive: 2.58%.
In the case of `Cc1cc(C)cc(N(C(=O)c2ccccc2)C2CCN(C(=O)OC(C)(C)C)CC2)c1`, the inhibition of complex formation is inactive: 0.037%.
Next, `O=C(NCC1(N2CCCCC2)CCCCC1)c1ccc(Cl)nc1`: inactive: -2.13%; `Cc1cccc(NC2(C#N)CCN(Cc3ccccc3)CC2)c1`: inactive: -0.901%.
For `CSc1ccccc1C(=O)NCC1(N2CCCCC2)CCCCC1` the value was inactive: -5.98%.
Next, `O=C(NCC1(N2CCCCC2)CCCCC1)c1cccs1`: inactive: 1.47%; `O=C(NCC1(N2CCCCC2)CCCCC1)c1ccc(=O)[nH]c1`: inactive: -1.96%.
`COc1ccc(C(=O)NCC2(N3CCCCC3)CCCCC2)c(OC)c1OC`: the inhibition of complex formation is inactive: -4.05%.
For `CC(C)(C)OC(=O)N1CCC(N(C(=O)c2ccccc2)c2ccc(F)cc2)CC1` the value was inactive: 1.85%; for `COc1ccc(C(=O)NCC2(N3CCCCC3)CCCCC2)cc1`, inactive: -14.1%.
Next, `CCCOc1ccc(C(=O)NCC2(N(C)C)CCCCC2)cc1OC`: inactive: 0.0479%.
For `CN1CCC(Nc2cccc(F)c2)CC1` the value was inactive: -2.71%; for `O=C(NCC1(N2CCCCC2)CCCCC1)c1cncc(Br)c1`, inactive: 1.09%.
As for `COc1ccc2c(c1O)-c1c(O)c(OC)cc3c1[C@H](C2)[N+](C)(C)CC3.O=[N+]([O-])c1cc([N+](=O)[O-])c([O-])c([N+](=O)[O-])c1[O-]`, the inhibition of complex formation is inactive: 3.73%.
Next, `O=C(OC1CN2CCC1CC2)c1ccc([N+](=O)[O-])cc1` (configuration not stated): inactive: -1.18%; `O=C(NCC1(N2CCOCC2)CCCCC1)c1cc(F)c(F)cc1Cl`: inactive: -3.55%; `COc1cc(OC)c(C(=O)NCC2(N(C)C)CCCCC2)cc1OC`: inactive: 0.54%.
For `CN(C)c1cccc(C(=O)NCC2(N3CCCCC3)CCCCC2)c1`, the inhibition of complex formation was inactive: -1.37%.
Next, `O=[N+]([O-])c1cc([N+](=O)[O-])c(OC2CCCCC2O)c([N+](=O)[O-])c1` (configuration not stated): inactive: -1.03%; `CC(C)c1ccc(NC2CCN(C(=O)OC(C)(C)C)CC2)cc1`: inactive: 0.467%.
Next, `COc1ccc(NC2CCN(C(=O)OC(C)(C)C)CC2)cc1`: inactive: 0.0122%.
For `CC(C)c1ccc(C(=O)NCC2(N3CCOCC3)CCCCC2)cc1` the value was inactive: -0.159%; for `CN1CCN(CCOC(=O)C(O)(c2ccccc2)c2ccccc2)CC1`, inactive: -1.99%.
`O=C(NCC1(N2CCOCC2)CCCCC1)c1cc(=O)[nH]c2ccccc12`: the inhibition of complex formation is inactive: 1.93%.
Regarding `COc1cc(C(=O)NCC2(N3CCCCC3)CCCCC2)ccc1OC(F)F`, the inhibition of complex formation was inactive: 1.61%.
For `O=C(NCC1(N2CCCCC2)CCCCC1)c1cccc(C(F)(F)F)c1` the value was inactive: -1.17%.
`O=[N+]([O-])c1cc([N+](=O)[O-])c(NCC2CCS(=O)(=O)C2)c([N+](=O)[O-])c1` (configuration not stated): the inhibition of complex formation was inactive: -2.61%.
For `O=C(NCC1(N2CCCCC2)CCCCC1)c1cccc([N+](=O)[O-])c1` the value was inactive: 0.313%; for `CSc1ccc(C(=O)NCC2(N3CCOCC3)CCCCC2)cc1`, inactive: -0.951%; for `N#CC1(Nc2ccccc2)CCN(CCc2ccccc2)CC1`, inactive: 2.28%.
For `O=C(NCC1(N2CCCCC2)CCCCC1)c1ccc(OC(F)F)cc1` the value was inactive: -1.98%.
Next, `CCCN1CCC(Nc2cc(OC)cc(OC)c2)CC1`: inactive: 2.56%; `Cc1cc(N(CCCl)CCCl)ccc1C=O`: inactive: 2.82%.
In the case of `c1ccc(CN2CCC(Nc3ccccc3)CC2)cc1`, the inhibition of complex formation was inactive: 3.37%.
For `CN(C)C1(CNC(=O)c2cccc(C#N)c2)CCCCC1` the value was inactive: -0.526%.
For `CCOC(=O)C(CC)C1=NC(C)(C)Cc2ccccc21.O=[N+]([O-])c1cc([N+](=O)[O-])c(O)c([N+](=O)[O-])c1` (configuration not stated) the value was inactive: -0.164%; for `CC(C)(C)OC(=O)N1CCC(N(C(=O)c2ccccc2)c2ccc(Cl)cc2)CC1`, inactive: -0.387%; for `O=C(O)c1cccc(Nc2c([N+](=O)[O-])cc([N+](=O)[O-])cc2[N+](=O)[O-])c1`, inactive: 5.41%.
Take `CCc1cc(C(=O)NCC2(N3CCCCC3)CCCCC2)sc1C`: the inhibition of complex formation was inactive: 3.46%.
For `O=C(OC1CN2CCC1CC2)C1c2ccccc2C=Cc2ccccc21` (configuration not stated) the value was inactive: -0.788%; for `N/C(=N\O)c1c(N)no[n+]1[O-]`, inactive: 3.74%.
For `CCOC(=O)N1CCC(Nc2ccc(C)cc2)CC1` the value was inactive: -0.0764%; for `COc1ccc(C(=O)NCC2(N3CCOCC3)CCCCC2)cc1OC`, inactive: -0.413%.
For `O=C(NCC1(N2CCOCC2)CCCCC1)c1cc(Br)ccc1Cl` the value was inactive: 0.822%; for `COc1cc(C(=O)NCC2(N3CCOCC3)CCCCC2)cc(OC)c1C`, inactive: 2.5%; for `CN1CCC(Nc2ccc(Cl)cc2)CC1`, inactive: -0.41%.
As to `CCC(CO)(C(=O)OC1CN2CCC1CC2)c1ccccc1` (configuration not stated), the inhibition of complex formation was inactive: -0.785%.
For `COc1cccc(C(=O)N(c2cc(C)cc(C)c2)C2CCN(C(=O)OC(C)(C)C)CC2)c1` the value was inactive: 1.05%; for `COc1cc(OC)cc(C(=O)NCC2(N3CCOCC3)CCCCC2)c1`, inactive: 0.746%; for `CCCOc1ccc(C(=O)NCC2(N(C)C)CCCCC2)cc1`, inactive: 3.07%.
For `O=C(O)C1(Nc2ccccc2)CCN(Cc2ccccc2)CC1` the value was inactive: 0.374%.
For `CC(C)(C)OC(=O)N1CCC(Nc2ccccc2)CC1` the value was inactive: 0.44%; for `CN1CCC(Nc2ccc(F)c(Cl)c2)CC1`, inactive: -0.143%.
For `CCOc1ncccc1C(=O)NCC1(N2CCOCC2)CCCCC1`, the inhibition of complex formation was inactive: -0.924%.
Take `CN(C)c1ccc(C(=O)NCC2(N3CCCCC3)CCCCC2)cc1`: the inhibition of complex formation was inactive: 0.343%.
For `Cn1c(=O)[nH]cc(N(CCCl)CCCl)c1=O` the value was inactive: 0.215%; for `O=C(NCC1(N2CCCCC2)CCCCC1)c1ccco1`, inactive: -0.684%; for `CCN1CCC(Nc2cccc(F)c2)CC1`, inactive: -4.87%.
Next, `Cc1ccc(NC2(C#N)CCN(Cc3ccccc3)CC2)cc1`: inactive: 1.88%.
Next, `Fc1ccccc1NC1CCN(Cc2ccccc2)CC1`: inactive: -0.0053%; `Cc1ccc(C(=O)NCC2(N3CCCCC3)CCCCC2)o1`: inactive: -2.2%.
On to `COc1cc(OC)cc(C(=O)NCC2(N3CCCCC3)CCCCC2)c1`, for which the inhibition of complex formation is inactive: 2.54%.
For `CC(=O)N(c1ccccc1)C1CCNCC1` the value was inactive: 3.24%.
